Laboratory results published in PMC10285453 (Comprehensive Psychoneuroendocrinology, 2023).

Test system: primary polyclonal rabbit anti-OXT IgG (Cayman Chemical Company OXT EIA, secondary monoclonal mouse anti-rabbit IgG)
Assay: OXT EIA cross-reactivity, Cayman Chemical Company kit
Assay type: binding

Substance: Albumin
- cross-reactivity (IC50(OXT)/IC50(interfering protein)): < 0.01%
